In ChEMBL document CHEMBL4619802, “Discovery and Characterization of Pure RhlR Antagonists against Pseudomonas aeruginosa Infections” (J Med Chem, 2020):

Columns and labels:
[1] = target: T1, HTH-type quorum-sensing regulator RhlR (Pseudomonas aeruginosa (strain ATCC 15692 / PAO1 / 1C / PRS 101 / LMG12228)) (UniProt P54292); assay: Antagonist activity at RhlR in Pseudomonas aeruginosa assessed as reduction in pyocyanin production at 10 uM after 24 hrs by RT-qPCR method relative to control; parameters: scale not given: the % may be the effect or the level left
T1 sequence (whole entry): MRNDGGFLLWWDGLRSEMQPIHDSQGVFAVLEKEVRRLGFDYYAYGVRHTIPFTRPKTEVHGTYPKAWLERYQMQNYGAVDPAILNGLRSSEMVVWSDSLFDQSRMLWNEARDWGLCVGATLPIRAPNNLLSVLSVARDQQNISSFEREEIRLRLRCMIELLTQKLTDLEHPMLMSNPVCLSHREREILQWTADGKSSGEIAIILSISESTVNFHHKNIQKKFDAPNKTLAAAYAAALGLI

[2] = target: T1, HTH-type quorum-sensing regulator RhlR (Pseudomonas aeruginosa (strain ATCC 15692 / PAO1 / 1C / PRS 101 / LMG12228)); assay: Modulation of RhlR in Pseudomonas aeruginosa assessed as reduction in biofilm formation at 10 uM incubated for 48 hrs under dynamic condition by 4',6-diamidino-2-phenylindole staining based confocal laser scanning microscopy relative to control; parameters: scale not given: the % may be the effect or the level left

CCCC(=O)C#Cc1ccc(F)c(F)c1
Activity [1]: 44% | Activity [2]: 74%
